# Data reported in ChEMBL document CHEMBL4184302, “Virtual target screening reveals rosmarinic acid and salvianolic acid A inhibiting metallo- and serine-β-lactamases” (Bioorg Med Chem Lett, 2018).
# System: Bacteria
# Assay: Competitive inhibition of bacterial N-terminal His6-tagged VIM2 (27 to 266 residues) expressed in Escherichia coli BL21 DE3 pLysS cells assessed as substrate Vmax using varying levels of FC-5 as substrate by fluorescence assay
compound,measurement,value
O=C(/C=C/c1ccc(O)c(O)c1)O[C@H](Cc1ccc(O)c(O)c1)C(=O)O [ROSMARINIC ACID],Vmax,4.59 µM/min
